Where a name gives a salt, the structure may show the parent alone. ± gives the uncertainty stated by the source. Only a part is listed here, and it is no random draw.
System: THP-1
Test: CD54 surface expression induction over DMSO control (% over DMSO); higher = stronger dendritic cell activation
Settings: exposure time: 24 h
Protocol: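 hCLAT-like CD54 and CD86 surface expression on THP1 cells after 24 h exposure at a single concentration (highest non-cytotoxic concentration, or 100-200 µM if not cytotoxic). Flow cytometry (iQue) was run on 5,000 live cells.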

Compound | CD54 surface expression induction
C=CC(=O)OCC(CC)CCCC (configuration not stated) [2-Ethylhexyl acrylate] (200 µM) | -15.4 ± 1
Oc1cccc2cccnc12 [8-Hydroxyquinoline citrate] (10 µM) | -0.29 ± 1.5
O=[N+]([O-])[O-].[K+] [Potassium nitrate] (199 µM) | -4.85 ± 4.3
CN(C)C(=S)[S-].CN(C)C(=S)[S-].[Zn+2] [Ziram] (10 µM) | -7.44 ± 1.8
Nc1cccc2ccccc12 [1-Naphthylamine] (100 µM) | 33.4 ± 1.5
CCOC(=S)S [Potassium ethyl xanthate] (200 µM) | 22.9 ± 49
CCC[CH2][Sn]([Cl])([CH2]CCC)[CH2]CCC [Tributyltin chloride] (10 µM) | 2.99 ± 1.7

Reference: the supplement of paper PMC10933113
